Reference: publication PMC11025159 (Journal of Translational Medicine, 2024)
Structures can show the parent of a compound that is named as a salt.

Test system: phosphorylation of JAK1, JAK3 and STAT3
Experiment: Western blotting of JAK/STAT phosphorylation in A549 cells
Assay type: cell-based, human
Protocol: For western blotting, A549 cells were seeded at a density of 0.2 × 10^6 cells/well in 6-well plates. At 24 h, cells were treated with various concentrations of small molecules and grown with 10% FBS for 48 h. Whole-cell lysates were prepared in 1× RIPA buffer (Sigma) with added sodium orthovanadate (1 mM), protease cocktail (Roche), NaF (1 mM), PMSF (1 mM) and EDTA (0.5 M). Protein estimation was done using Bradford reagent (Bio-Rad). The samples were boiled with sample buffer containing 1% β-mercaptoethanol, 6% glycerol, 2% SDS, 22 mM Tris–HCl pH 6.8, and bromophenol blue. Whole-cell lysates corresponding to 70-100 µg of protein were loaded. The samples were analysed by SDS-PAGE with a 10% separating gel. After running the gel, the proteins were transferred to PVDF membrane (Millipore) and then blocked for 1 h in a solution of 5% BSA (Sigma), 0.1% Tween 20 (Hi-Media), 150 mM NaCl and 20 mM Tris–HCl pH-7.4. The membrane was probed with specific antibodies for pJAK-1 (1:1000), p-STAT-3 (CST) (1:1000), total JAK-1 (1:1000), pJAK-3 Z(1:1000), T-JAK-3 (1:1000), total STAT-3(1:1000), GAPDH (1:500), and visualized using ECL (Millipore). GAPDH was used as a loading control. The results shown are representative of western blot data analysis obtained from at least three independent experiments. To induce STAT3 pathway stimulation with IL-6, A549 cells were initially seeded in 6 well-culture plates at a concentration of 1.25 × 10^5 cells/mL and incubated for 24 h. Subsequently, the cells were subjected to serum-free medium for a minimum of 12 h to induce starvation. Following this starvation period, the A549 cells were pre-treated with varying concentrations of MJ04 for a duration of 4 h. Following the pre-treatment, the cells were stimulated with 10 ng/mL of IL-6 for 30 min [20–22].

C[C@@H]1CCN(C(=O)CC#N)C[C@@H]1N(C)c1ncnc2[nH]ccc12 [Tofacitinib, tofacitinib citrate, reference compound]
significant decrease: phosphorylation of STAT3 (Tyr705) (dose-dependent) | phosphorylation of JAK1 (increasing concentrations) | phosphorylation of JAK3 (increasing concentrations)
